Reference: patent publication US11001613B2, “TFPI inhibitors and methods of use” (priority 2008, dated 2021)

Details: in vivo, iv, 10 mg/kg

Substance: Ac-FQSKGNVFVDGYFERL-Aib-AKLC(PEG(40 kD))-NH2 [JBT1855]
- concentration of peptide in mouse plasma over time: present at high concentrations in mouse plasma at 100 minutes post-administration
